Patent WO2016073157A1 (dated 2016)

T1: His-tagged human Ang2 (hAng2his8) (human, UniProt O15123 19-496, limits assumed)
T1 construct: neither is tied to this construct; not shown: His tag (his8)
T1 sequence (looked up): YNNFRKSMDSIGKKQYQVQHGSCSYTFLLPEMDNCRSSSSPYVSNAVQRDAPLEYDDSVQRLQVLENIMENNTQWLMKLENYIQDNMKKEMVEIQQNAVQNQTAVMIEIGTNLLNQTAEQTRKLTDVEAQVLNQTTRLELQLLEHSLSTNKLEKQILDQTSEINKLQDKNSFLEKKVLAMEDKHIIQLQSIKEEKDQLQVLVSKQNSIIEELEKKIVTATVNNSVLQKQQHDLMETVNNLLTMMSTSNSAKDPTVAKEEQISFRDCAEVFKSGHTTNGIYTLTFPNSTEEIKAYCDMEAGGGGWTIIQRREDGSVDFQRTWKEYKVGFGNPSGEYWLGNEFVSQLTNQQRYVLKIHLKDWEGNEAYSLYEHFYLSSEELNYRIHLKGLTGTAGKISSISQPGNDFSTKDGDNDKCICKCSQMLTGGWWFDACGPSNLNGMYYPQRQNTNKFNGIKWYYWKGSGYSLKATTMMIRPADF


What was measured:
[1] = target: T1, His-tagged human Ang2 (hAng2his8); test: phage competition ELISA (phage IC50), hAng2his8 in solution and on the plate, Ang2 inferred
[2] = target: T1, His-tagged human Ang2 (hAng2his8); test: phage competition ELISA (phage IC50), hAng2his8, Ang2 inferred
hVEGF109 [3] = target: T2, hVEGF109 (human, UniProt P15692-4 34-135, limits assumed); test: phage competition ELISA (phage IC50), hVEGF109 in solution and on the plate, VEGF inferred
T2 construct: Numbers count on the mature 165-amino acid VEGF, not on the precursor; also called human VEGF (hVEGF 109)

hVEGF109 [4] = target: T2, hVEGF109; test: phage competition ELISA (phage IC50), hVEGF109, VEGF inferred

IC50 [1]	fold change of phage IC50 against 5A12 4.2 [2]	IC50 (hVEGF109 [3])	fold change of phage IC50 against 5A12 4.2 (hVEGF109 [4])	Binder
0.08 nM	86.2 fold	39.5 nM	0.05 fold	5A12 4.2 HC.T52D (Fab, V domains shown) VH: EVQLVESGGGLVQPGGSLRLSCAASGFTISDYWIHWVRQAPGKGLEWVAGIDPAGGYTYYADSVKGRFTISADTSKNTAYLQMNSLRAEDTAVYYCARFVFFLPYAMDYWGQGTLVTVSS VL: DIQMTQSPSSLSASVGDRVTITCRASQFLSSFGVAWYQQKPGKAPKLLIYGASSLYSGVPSRFSGSGSGTDFTLTISSLQPEDFATYYCQQGLLSPLTFGQGTKVEIK
115 nM	0.06 fold	0.21 nM	9.38 fold	5A12 4.2 HC.Y100aW (Fab, V domains shown) VH: EVQLVESGGGLVQPGGSLRLSCAASGFTISDYWIHWVRQAPGKGLEWVAGITPAGGYTYYADSVKGRFTISADTSKNTAYLQMNSLRAEDTAVYYCARFVFFLPWAMDYWGQGTLVTVSS VL: DIQMTQSPSSLSASVGDRVTITCRASQFLSSFGVAWYQQKPGKAPKLLIYGASSLYSGVPSRFSGSGSGTDFTLTISSLQPEDFATYYCQQGLLSPLTFGQGTKVEIK
71.4 nM	0.1 fold	1.2 nM	1.64 fold	5A12 4.2 HC.A100bS (Fab, V domains shown) VH: EVQLVESGGGLVQPGGSLRLSCAASGFTISDYWIHWVRQAPGKGLEWVAGITPAGGYTYYADSVKGRFTISADTSKNTAYLQMNSLRAEDTAVYYCARFVFFLPYSMDYWGQGTLVTVSS VL: DIQMTQSPSSLSASVGDRVTITCRASQFLSSFGVAWYQQKPGKAPKLLIYGASSLYSGVPSRFSGSGSGTDFTLTISSLQPEDFATYYCQQGLLSPLTFGQGTKVEIK
0.43 nM	16.1 fold	24.2 nM	0.08 fold	5A12 4.2 HC.G54E (Fab, V domains shown) VH: EVQLVESGGGLVQPGGSLRLSCAASGFTISDYWIHWVRQAPGKGLEWVAGITPAEGYTYYADSVKGRFTISADTSKNTAYLQMNSLRAEDTAVYYCARFVFFLPYAMDYWGQGTLVTVSS VL: DIQMTQSPSSLSASVGDRVTITCRASQFLSSFGVAWYQQKPGKAPKLLIYGASSLYSGVPSRFSGSGSGTDFTLTISSLQPEDFATYYCQQGLLSPLTFGQGTKVEIK
69 nM	0.1 fold	0.49 nM	4.02 fold	5A12 4.2 HC.A100bT (Fab, V domains shown) VH: EVQLVESGGGLVQPGGSLRLSCAASGFTISDYWIHWVRQAPGKGLEWVAGITPAGGYTYYADSVKGRFTISADTSKNTAYLQMNSLRAEDTAVYYCARFVFFLPYTMDYWGQGTLVTVSS VL: DIQMTQSPSSLSASVGDRVTITCRASQFLSSFGVAWYQQKPGKAPKLLIYGASSLYSGVPSRFSGSGSGTDFTLTISSLQPEDFATYYCQQGLLSPLTFGQGTKVEIK
137 nM	0.05 fold	0.1 nM	19.7 fold	5A12 4.2 HC.A100bV (Fab, V domains shown) VH: EVQLVESGGGLVQPGGSLRLSCAASGFTISDYWIHWVRQAPGKGLEWVAGITPAGGYTYYADSVKGRFTISADTSKNTAYLQMNSLRAEDTAVYYCARFVFFLPYVMDYWGQGTLVTVSS VL: DIQMTQSPSSLSASVGDRVTITCRASQFLSSFGVAWYQQKPGKAPKLLIYGASSLYSGVPSRFSGSGSGTDFTLTISSLQPEDFATYYCQQGLLSPLTFGQGTKVEIK
